Cneo AK release – causes C. neoformans cell lysis | lysis activity, % at 15 µM | actives 0.2% (n = 360,000) | adenylate kinase release luminescence, 4 h; normalised: neutral wells 0, clomiphene wells 100;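 active = mean lysis activity across replicates of at least 80%, whatever share of replicates individually reach that level; inactive = mean lysis activity below 80%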
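Test system: log-phase Cryptococcus neoformans yeast cells; Quantity: yeast cell density of 5 × 10^6 cells/mL; Buffer or medium: YPD; Doses: single compound concentration per well; Timing: 4 h at 37 °C static, read 1 h later; Measured by: AK luminescence; Read-out basis: lysis from increased AK signal; Control set: Clomiphene as positive control.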
UUG fidelity – modulators of start codon recognition fidelity in yeast; S. cerevisiae UUG-firefly luciferase reporter, luminescence/redox ratio; activity score, % at 18.7 µM; 0.13% of 350,000 active;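 active = replicate mean at a twofold rise or more, about +100% in these data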;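 also: firefly luciferase made from a UUG start codon reports start codon fidelity; reporter light over untreated wells divided by growth signal over untreated wells; some hits fall short of that in this replicate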
ERp5 block – ERp5 (human) disulfide isomerase inhibition | ERp5 insulin aggregation, absorbance 650 nm, 90 min | inhibition, % at 9.99 µM | actives 0.05% (n = 350,000);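 active = mean replicate inhibition above about 25%, with every replicate also reaching it, limit read from the data, passing the limit was not always enough; inconclusive = only one of those two criteria met; inactive = neither criterion met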
PDI inh – inhibitors of human protein disulfide isomerase; P07237; PDI insulin aggregation turbidity, A650, 90 min; inhibition, % at 10 µM; actives 0.052% (n = 350,000); AID 588391;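 active = mean inhibition across replicates of 30% or more, whatever share of single replicates reach that level; inconclusive = mean inhibition below 30% while every single replicate reaches 30%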
* = called active by the depositor; ? = inconclusive; / = no result given. Only some compounds are listed: those with a hit (about 0.34% of all), similar ones and a draw of the others.

Abbreviations – A = Cneo AK release; B = UUG fidelity; C = ERp5 block; D = PDI inh
#1 O=C(C[C@H]1CC[C@@H]2[C@H](COC[C@@H](O)CN2Cc2cccc(C(F)(F)F)c2)O1)NCc1ccc(Cl)cc1
  A: 110*; B: /; C: -1; D: /

#2 O=C(C[C@@H]1CC[C@@H]2[C@H](COC[C@H](O)CN2Cc2cccc(C(F)(F)F)c2)O1)NCc1ccc(Cl)cc1
  A: 83*; B: /; C: -1; D: /

#3 O=C(C[C@@H]1CC[C@@H]2[C@H](COC[C@@H](O)CN2Cc2cccc(C(F)(F)F)c2)O1)NCc1ccc(Cl)cc1
  A: 60; B: /; C: 2; D: /

#4 O=C(C[C@H]1C[C@@H]2c3cc(NC(=O)Nc4ccccc4)ccc3O[C@@H]2[C@H](CO)O1)NCC1CC1
  A: 0; B: -9; C: -30; D: /

#5 CCCC#Cc1ccc([C@@H]2[C@@H](CO)N3C(=O)CN(S(=O)(=O)c4ccccc4C)C[C@H]23)cc1
  A: /; B: /; C: 1; D: /

#6 O=c1cc(CSc2nnnn2-c2ccc(O)cc2)nc2sccn12
  A: 4; B: 2; C: 0; D: 39*

#7 Cc1ccc(NC(=O)COc2ccccc2)c(NC(=O)c2ccco2)c1
  A: -1; B: -9; C: 30*; D: 10

#8 O=C(NC1CCCCC1)N[C@@H]1C=C[C@@H](CC(=O)N2CCOCC2)O[C@@H]1CO
  A: -2; B: /; C: 5; D: /

#9 CCC(=O)N[C@H]1C=C[C@@H](CC(=O)NCC2CCCCC2)O[C@@H]1CO
  A: 3; B: -9; C: 7; D: /

#10 O=C(NC1CCCCC1)N[C@H]1C=C[C@@H](CC(=O)N2CCOCC2)O[C@@H]1CO
  A: 93*; B: /; C: -2; D: /

#11 CCC(=O)N[C@@H]1C=C[C@H](CC(=O)NCC2CCCCC2)O[C@H]1CO
  A: 87*; B: 3; C: 0; D: /

#12 O=C(NC1CCCC1)N1CCCCN2[C@H](C1)[C@H](c1ccc(-c3cncnc3)cc1)[C@@H]2CO
  A: -3; B: -9; C: -1; D: /

#13 C/C=C/c1ccc([C@@H]2[C@@H](CO)N3CCCCN(C(=O)Nc4ccc(OC)cc4)C[C@H]23)cc1
  A: 102*; B: 20; C: -3; D: /

#14 O=C(NC1CCCC1)N1CCCCN2[C@H](CO)[C@H](c3ccc(-c4cncnc4)cc3)[C@@H]2C1
  A: 103*; B: 11; C: -6; D: /

#15 CCC[C@@H](CN1CCC[C@H]1CN1C(N)=NC[C@H]1C(C)C)N1C[C@@H]([C@H](C)CC)N(CCCC2CCCC2)C1=N
  A: 2; B: 2; C: 13; D: 13

Shown as a hit in PDI inh, among the entries above:
No.	SMILES	UUG fidelity	ERp5 block	PDI inh
6	O=c1cc(CSc2nnnn2-c2ccc(O)cc2)nc2sccn12	2	0	39*

Continuation.
Abbreviations – A = Cneo AK release; B = UUG fidelity; C = ERp5 block; D = PDI inh
#16 CCC[C@@H](CN1CCC[C@H]1CN1C(N)=NC[C@H]1CC(C)C)N1C[C@@H]([C@H](C)CC)N(CCCC2CCCC2)C1=N
  A: -1; B: -14; C: 27*; D: -69

#17 CCc1nc(N2CCCCC2C)c2oc3ccccc3c2n1 (stereo unspecified)
  A: 86*; B: 0; C: /; D: -1

#18 O=C(C[C@@H]1C[C@H]2c3cc(NC(=O)CC4CC4)ccc3O[C@H]2[C@H](CO)O1)NCc1ccc(Cl)cc1
  A: -5; B: /; C: 0; D: /

#19 CCOc1c(Cl)cc(CNC(C)(C)CC(C)(C)C)cc1OC
  A: /; B: /; C: /; D: 35*

#20 COc1cccc(S(=O)(=O)Nc2ccc3c(c2)[C@H]2C[C@H](CC(=O)N(C)C)O[C@@H](CO)[C@H]2O3)c1
  A: 99*; B: 3; C: 2; D: /

#21 CN(C)C(=O)C[C@@H]1C[C@H]2c3cc(NS(C)(=O)=O)ccc3O[C@H]2[C@@H](CO)O1
  A: -1; B: -4; C: 93*; D: /

#22 CN(C)C(=O)C[C@@H]1C[C@@H]2c3cc(NC(=O)Nc4ccccc4)ccc3O[C@@H]2[C@@H](CO)O1
  A: 1; B: 43*; C: /; D: /

#23 CN(C)C(=O)C[C@@H]1C[C@@H]2c3cc(NS(C)(=O)=O)ccc3O[C@@H]2[C@H](CO)O1
  A: -3; B: -6; C: 77*; D: /

#24 CS(=O)(=O)Nc1ccc2c(c1)[C@@H]1C[C@H](CC(=O)O)O[C@@H](CO)[C@@H]1O2
  A: /; B: /; C: -6; D: /

#25 C[C@H]1CN([C@@H](C)CO)C(=O)c2cccc(NC(=O)Nc3ccc(C(F)(F)F)cc3)c2O[C@H]1CN(C)S(=O)(=O)c1ccc(F)cc1
  A: -5; B: 2; C: 2; D: /

#26 Cc1ccccc1-c1ccc([C@H]2[C@@H](CO)N3C(=O)CN(C(=O)c4ccccn4)C[C@@H]23)cc1
  A: /; B: /; C: -8; D: /

#27 CCN(CC)CCCNc1nc2ccccc2c2[nH]c3ccc(OC)cc3c12
  A: /; B: /; C: 7; D: 60*

#28 C[C@H]1CN([C@@H](C)CO)C(=O)Cc2cc(NC(=O)Nc3ccc(F)cc3)ccc2O[C@H]1CN(C)Cc1ccc(C(=O)Nc2ccccc2N)cc1
  A: /; B: /; C: 5; D: /

#29 O=C([C@H]1[C@H](CO)[C@H]2Cn3c(cccc3=O)[C@@H]1N2Cc1cccc(Cl)c1)N1CCOCC1
  A: 90*; B: /; C: ?; D: /

#30 O=C(C[C@@H]1CC[C@H](NC(=O)Nc2cccc(F)c2)[C@@H](CO)O1)NCC1CC1
  A: 10; B: 20; C: 3; D: /

#31 O=C(CCC(=O)NNC(=O)COc1ccc(Br)cc1Br)NCc1ccccc1
  A: /; B: /; C: 0; D: 8

#32 Cc1cc(Br)cc(Br)c1OCC(=O)NNC(=O)CCC(=O)NCc1ccccc1
  A: 0; B: -6; C: 27*; D: -5

Arranged by the number under UUG fidelity (low to high): some entries from above.
no.	structure	UUG fidelity	ERp5 block	PDI inh
23	CN(C)C(=O)C[C@@H]1C[C@@H]2c3cc(NS(C)(=O)=O)ccc3O[C@@H]2[C@H](CO)O1	-6	77*	/
21	CN(C)C(=O)C[C@@H]1C[C@H]2c3cc(NS(C)(=O)=O)ccc3O[C@H]2[C@@H](CO)O1	-4	93*	/
30	O=C(C[C@@H]1CC[C@H](NC(=O)Nc2cccc(F)c2)[C@@H](CO)O1)NCC1CC1	20	3	/
